Experimental findings from patent US10864211B2, “Hydroxy isoxazole compounds useful as GPR120 agonists” (Merck Sharp & Dohme Corp., priority 2016, dated 2020) are described below.

Chains of the proteins cited; added tags and fusions are not shown.
UniProt Q5NUL3, whole entry: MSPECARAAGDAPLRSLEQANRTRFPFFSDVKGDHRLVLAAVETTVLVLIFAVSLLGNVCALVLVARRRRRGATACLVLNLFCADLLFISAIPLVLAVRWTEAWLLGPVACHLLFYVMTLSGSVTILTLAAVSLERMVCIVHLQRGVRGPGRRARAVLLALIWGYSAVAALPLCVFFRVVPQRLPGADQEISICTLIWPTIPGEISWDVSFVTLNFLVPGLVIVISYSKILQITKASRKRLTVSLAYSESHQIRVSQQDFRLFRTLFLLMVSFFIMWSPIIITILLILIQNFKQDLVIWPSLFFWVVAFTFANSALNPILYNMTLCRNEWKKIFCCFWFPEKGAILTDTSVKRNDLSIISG

As usually defined, the EC50 is the concentration needed to bring the measured effect to its halfway point.

The target of the experiment is human GPR120 (Homo sapiens, UniProt Q5NUL3). Put plainly: Human GPR120 IP1 assay (inositol phosphate turnover). Conditions: read-out: Human GPR120 IP1 EC50; IP1 accumulation in CHO-K1 cells stably expressing the short form of human GPR120; tested form: 2HCl. The source says:
The binding of small molecule agonists to the G-protein-coupled receptor GPR120 activates phospholipase C, and leads to the generation of inositol 1,4,5-trisphosphate (InsP3 or IP3). IP3 is subsequently de-phosphorylated to IP1, which accumulates in cells and is stable in the presence of lithium chloride.
In the present method, agonist-induced activation of the human and rat GPR120 receptor was monitored by measuring the accumulation of IP1 in CHO-K1 cells that were stably expressing the short form of human GPR120 (Accession #NM_001195755) or HEK293 cells stably expressing rat GPR120 (Accession #NM_001047088). Following agonist addition, GPR120 activation and subsequent accumulation of IP1 was measured using a homogeneous Time Resolved Fluorescence-based ELISA commercially available from CisBio (IP-one ELISA Kit). The IP-One ELISA was a competitive immunoassay which uses IP1 labeled with […] and a terbium cryptate-labeled anti-IP1 monoclonal antibody. […] The signal loss was then back calculated to IP1 concentration using an IP1 standard curve. […]
The assay was performed in 384-well format. […] The plates were then read in a Perkin ElmerEnVision or equivalent reader able to measure FRET. […] The data was normalized to % activity using a reference compound, and the EC50 values were determined using a standard 4-parameter fit.

Take `CCOc1cc([C@H]2C[C@H](Oc3ccc(-c4cc(O)no4)cn3)C2)ccn1` (relative stereo): the EC50 was found to be 28 nM.
